Measured values from patent US11622990.

By UniProt entry, the sequences of proteins in these tests, tags left out. Residues count along the entry.
UniProt P11021, 19-654 limits assumed: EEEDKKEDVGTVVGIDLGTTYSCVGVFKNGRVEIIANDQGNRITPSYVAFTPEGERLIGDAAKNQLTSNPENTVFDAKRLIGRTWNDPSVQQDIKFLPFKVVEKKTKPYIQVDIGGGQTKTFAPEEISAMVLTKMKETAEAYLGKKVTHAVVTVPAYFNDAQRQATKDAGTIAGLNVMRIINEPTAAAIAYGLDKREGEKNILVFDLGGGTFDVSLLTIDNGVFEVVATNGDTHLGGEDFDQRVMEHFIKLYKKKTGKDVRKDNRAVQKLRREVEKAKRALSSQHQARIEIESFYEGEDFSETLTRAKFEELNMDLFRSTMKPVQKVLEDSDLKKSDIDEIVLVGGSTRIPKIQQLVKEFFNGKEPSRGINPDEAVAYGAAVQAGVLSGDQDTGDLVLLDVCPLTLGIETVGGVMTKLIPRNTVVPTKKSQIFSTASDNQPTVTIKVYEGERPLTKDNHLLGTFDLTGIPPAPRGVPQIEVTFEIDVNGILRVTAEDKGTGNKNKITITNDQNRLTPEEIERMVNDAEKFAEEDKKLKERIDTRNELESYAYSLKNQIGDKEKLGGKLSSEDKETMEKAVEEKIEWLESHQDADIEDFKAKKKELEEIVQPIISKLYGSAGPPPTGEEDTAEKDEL

Target: Recombinant human glucose-regulated protein GRP78 (human) (UniProt P11021)
Test: SPR (Biacore T200), recombinant human GRP78 coupled to a CM5 chip, peptide injected at 0.3125-20 µM

PAVRTNS (all seven residues are D-configuration amino acids (^DP^DA^DV^DR^DT^DN^DS)) [DVAP (D-configuration peptide DP-DA-DV-DR-DT-DN-DS)] gave a Kd of 4.01 µM.
